Test results from US8372598B2 (priority 2010, dated 2013).

Assays:
Co-5673 = experiment: Survival in mutagens; type: cell-based, Clostridium; conditions: 50 μg/ml MNNG, 40 minutes, 32° C.
Co-2164 = experiment: Survival in mutagens; type: cell-based, Clostridium; conditions: 50 μg/ml MNNG

SMILES: CN(N=O)C(=N)N[N+](=O)[O-]
- Survival (% of control) (Co-5673): 4%
- Survival (count) (Co-5673): 3.7 × 10^6
- Survival (% of control) (Co-2164; 40 minutes, 32° C., Co-2164): 84%
- Survival (count) (Co-2164; 40 minutes, 32° C., Co-2164): 3.5 × 10^7
- higher survival rate in comparison to Co-5673 (Co-2164; Co-2164 versus Co-5673): 80%
